Data from ChEMBL document CHEMBL1150265, “(3R,5S,E)-7-(4-(4-fluorophenyl)-6-isopropyl-2-(methyl(1-methyl-1h-1,2,4-triazol-5-yl)amino)pyrimidin-5-yl)-3,5-dihydroxyhept-6-enoic acid (BMS-644950): a rationally designed orally efficacious 3-hydroxy-3-methylglutaryl coenzyme-a reductase inhibitor with reduced myotoxicity potential” (J Med Chem, 2008).

Species on record: Homo sapiens
Assay: Metabolic stability in human assessed as hepatic extraction
Format: ADME, organism-based
Conditions: in vivo

CC(C)c1c(C(=O)Nc2ccccc2)c(-c2ccccc2)c(-c2ccc(F)cc2)n1CC[C@@H](O)C[C@@H](O)CC(=O)O [ATORVASTATIN] was tested, and the Activity was greater than 70%.
